Each structure is given as a SMILES string. Several values for one entry are separate records, joined by “and”; a condition that tells them apart may be missing. Identical values can stand only once. This is a selection; strong and weak results do not stand in their true shares. Inconclusive results are not listed. Activity calls are given as the source filed them. The call rests on the fitted dose curve.
Potency means the concentration at half of the fitted maximal effect.

By UniProt entry, the sequences of proteins in these tests, tags left out. Where a name states a change or a piece, a line headed by the entry shows the natural chain unless it says otherwise.
UniProt P22303: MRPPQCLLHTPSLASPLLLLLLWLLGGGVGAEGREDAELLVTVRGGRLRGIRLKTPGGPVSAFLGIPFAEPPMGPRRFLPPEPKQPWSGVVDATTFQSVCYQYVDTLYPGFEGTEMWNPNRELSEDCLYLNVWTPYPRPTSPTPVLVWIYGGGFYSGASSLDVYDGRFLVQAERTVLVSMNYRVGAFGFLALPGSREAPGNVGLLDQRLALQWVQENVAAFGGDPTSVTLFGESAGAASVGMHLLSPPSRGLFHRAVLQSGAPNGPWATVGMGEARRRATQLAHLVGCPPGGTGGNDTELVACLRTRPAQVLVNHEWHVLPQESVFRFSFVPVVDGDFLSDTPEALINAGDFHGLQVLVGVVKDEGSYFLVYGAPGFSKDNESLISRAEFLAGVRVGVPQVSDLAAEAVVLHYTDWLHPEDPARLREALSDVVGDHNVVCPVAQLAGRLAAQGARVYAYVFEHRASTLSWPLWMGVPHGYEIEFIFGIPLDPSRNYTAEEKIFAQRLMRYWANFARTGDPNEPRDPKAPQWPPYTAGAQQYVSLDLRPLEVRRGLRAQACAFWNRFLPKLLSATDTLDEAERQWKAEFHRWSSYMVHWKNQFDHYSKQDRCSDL

This experiment deals with Acetylcholinesterase (Homo sapiens) (UniProt P22303). The experiment in a line: Acetylcholinesterase (AChE) small molecule antagonists: colormetric cell-based qHTS assay (AID 1347395). Further: nearly all actives have a fitted effect of over 30% in size. As to conditions: SH-SY5Y cells AChE activity, colorimetric (Ellman). From the text:
National Center for Advancing Translational Sciences [NCATS]
Division of Preclinical Innovation [DPI]
U.S. Environmental Protection Agency [EPA]
National Institutes of Environmental Health Sciences [NIEHS]
National Toxicology Program [NTP]
U.S. Food and Drug Administration [FDA]
Acetylcholinesterase (AChE) is the primary cholinesterase in the body that hydrolyzes a key neurotransmitter, acetylcholine. Inhibition of AChE activity can lead to neurotoxicity. The known inhibitors include organophosphorous pesticides (OP), chemical warfare agents, drugs, and various phytochemicals.
A homogenous cell-based assay using the Amplite Colormetric acetylcholinesterase assay kit (AAT Bioquest, Sunnyvale, CA) was used to evaluate the chemicals in the Tox21 10K library that inhibit AChE activity. The assay uses 5, 5-dithiobis-(2-nitrobenzoic acid) (DTNB) to quantify the thiocholine produced from the hydrolysis of acetylthiocholine by AChE from the SH-SY5Y cells.
Tox21 Assay Protocol Summary:
For the cell-based AChE assay, 2,000 SH-SY5Y cells in 4 uL/well were dispensed into black, clear-bottom 1536-well plates using a Multidrop Combi dispenser (Thermo Scientific, MA). The assay plates were incubated overnight at 37 C to allow cells to attach to the wells, followed by the transfer of 23 nL of compound or DMSO (vehicle control) by a Pintool Station (Wako Automation, CA). The plates were incubated for 30 min at 37 C and 5% CO2, followed by the addition of 4 uL of detection cocktail solution (DTNB, acetylthiocholine) into each well using a Flying Reagent Dispenser (Beckman Coulter, CA) and then 90 min incubation at 37 C.
Turning to `CCOP(=O)(OCC)O/C(=C/Cl)c1ccc(Cl)cc1Cl`, the Potency was active: 2.52 µM. Turning to `Nc1c2ccccc2nc2ccccc12`, the Potency is active: 556 nM and active: 871 nM. The same measure for `CCN(CC)CCCC(C)Nc1c2ccc(Cl)cc2nc2ccc(OC)cc12` (stereo unspecified): active: 24.5 µM; for `COc1ccc2cc3[n+](cc2c1OC)CCc1cc2c(cc1-3)OCO2`: active: 285 nM and active: 2.45 µM; for `CO[C@]12C[C@@H](COC(=O)c3cncc(Br)c3)CN(C)[C@@H]1Cc1cn(C)c3cccc2c13`: active: 3.47 µM.

`CNC(=O)O/N=C/C(C)(C)SC`: the Potency is active: 6.39 µM and active: 5.64 µM. For `COP(=S)(OC)SCn1nnc2ccccc2c1=O`, the Potency was active: 39.1 µM and active: 28.3 µM. The same measure for `COc1cc(C(=O)NCc2ccc(OCCN(C)C)cc2)cc(OC)c1OC`: active: 6.92 µM; for `c1ccc(C[n+]2cccc3ccccc32)cc1`: active: 11.2 µM. The same measure for `CN(C)c1ccc2nc3ccc(=[N+](C)C)cc-3sc2c1`: active: 859 nM and active: 710 nM and active: 1.1 µM; for `CNC(=O)O/N=C/C(C)(C)S(C)(=O)=O`: active: 17.9 µM and active: 11.2 µM.

These data come from PubChem BioAssay (Tox21).
